Columns and labels:
[1] = system: Skeletonema costatum; conditions: in vivo
[2] = system: Acartia tonsa; conditions: in vivo

polyaspartate [aspartic acid based polymer]
Skeletonema costatum EC50 72h [1]: >10,000 mg/L | Acartia tonsa EC50 48h [2]: >9,000 mg/L

From patent publication US9914869B2, “System and method for inhibiting scale formation in oil wells” (GLOBAL GREEN PRODUCTS LLC, priority 2012, dated 2018)
